Source: PubChem
B2AR arrestin: agonists driving beta-arrestin recruitment to human beta2-adrenergic receptor. P07550. beta-arrestin recruitment to beta2AR, cell-based reporter. Potency, µM (highest dose often 46.1 µM), actives largely listed as activators. actives 0.02% (n = 330,000); note: nearly all actives have a fitted effect of over 65% in size
miR-21 FLuc: miR-21 reporter, rising signal; HeLa miR-21 FLuc reporter, luciferase, 48 h; Potency, µM (titrated, usually from 38.3 µM); AID 2288; 340,000 tested, under 10 active; active = well fitted rising curve with a large enough effect; inconclusive = small, poorly fitted or top-dose-only effect; inactive = no such curve, though single readings can be large or run the other way;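 further: miR-21 action dims this reporter so a rising signal means less miR-21 action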
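HeLa miR-21-FLuc reporter line, endogenous miR-21; 2000 cells/well in DMEM/10% FBS; compound titration up to ~40uM final, 48 h, 37 degree Celsius; luciferase detection reagent, 15 min lysis, CCD luminescence.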
A549 tox-1: kills or reduces viability of A549 cells in Nrf2 counter-screen; AID 504648; Potency, µM (series often up to 46 µM), most hits filed as inhibitors; actives 0.16% (n = 390,000); A549 ARE-Fluc cells, CellTiter-Fluor viability, 18-24 h
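Cytotoxicity counterscreen: CellTiter-Fluor fluorescence was measured in A549 ARE_Fluc cells after 18-24 h of compound exposure in a concentration series. The subsequent BugLite luminescent read reports ARE-luciferase activity.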
Nrf2 block: inhibitors of Nrf2 signaling | A549 ARE-Fluc reporter, luciferase luminescence, 18-24 h | actives 2.1% (n = 360,000) | Potency, µM (series often up to 46 µM), most hits filed as inhibitors; note: nearly all actives have a fitted effect of over 60% in size
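Nrf2 function is reported as luminescence of an ARE-controlled luciferase in A549 cells. Compounds were tested at several concentrations, and a CellTiter-Fluor read on the same wells flagged cytotoxicity.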
Nrf2 activator: activators of Nrf2 (ARE) signaling. Potency, µM (titrated, usually from 46.1 µM), usual class: activators. actives 0.31% (n = 410,000). AREc32 ARE-luciferase reporter (MCF7-derived line), luminescence, 24 h; note: nearly all actives have a fitted effect of over 65% in size
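Nrf2 activation is followed as ARE-luciferase induction in the AREc32 line after one day of compound treatment; luminescence is read with Steady-Glo.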
FLuc enzyme inh: counter-screen for Nrf2 inhibitors: firefly luciferase enzyme inhibition; shares compounds with Nrf2 block; purified firefly luciferase, luminescence inhibition; Potency, µM (titrated, usually from 57.5 µM), usual class: inhibitors; actives 4% (n = 1,400); note: nearly all actives have a fitted effect of over 65% in size
A549 tox-2: toxic to A549 ARE-Fluc cells in Nrf2 counterscreen; A549 ARE-Fluc cells, cytotoxicity counterscreen; actives 2% (n = 1,400); shares compounds with Nrf2 block; AID 720523; Potency, µM (titrated, usually from 46.1 µM), most hits filed as inhibitors;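 note: cells exposed to compounds for 18 to 24 hours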
Nrf2 ARE inh: confirmation of Nrf2 inhibitors in A549 ARE reporter cells; actives 74% (n = 1,400); A549 ARE-firefly luciferase reporter, luminescence; shares compounds with Nrf2 block; Potency, µM (titrated, usually from 46.1 µM), most hits filed as inhibitors; note: nearly all actives have a fitted effect of over 65% in size
Of the large screens only hits and unclear results are named; the others gave an inactive call (follow-up assays come after a bar, where shown). A selection: hits, their analogues and other compounds. The true share with any hit is near 2.2%. Unless noted, calls come from the whole dose curve; as a rule, active = well fitted curve in the direction sought with a large enough effect; inconclusive = small, poorly fitted or top-dose-only effect, or another doubt; inactive = no such curve, though single readings can be large; an effect the other way counts as inactive or inconclusive.

Cc1ccc(F)cc1NC(=O)c1ccc(Cn2nc(N3CCN(c4ccccc4)CC3)ccc2=O)o1	miR-21 FLuc inconclusive, Nrf2 block 7.3µM (no result: B2AR arrestin) | FLuc enzyme inh inactive | A549 tox-2 inactive | Nrf2 ARE inh 12µM
O=C(Nc1ccc(F)cc1F)c1cccn(Cc2ccccc2)c1=O	Nrf2 block inconclusive
CCCCOc1ccc(Cn2c(=O)oc3ccccc32)cc1	Nrf2 block inconclusive
Nc1c(C(=O)Nc2ccc(OC(F)(F)F)cc2)sc2nc3c(cc12)N1CCC3CC1	miR-21 FLuc inconclusive, Nrf2 block 6.5µM (not shown: B2AR arrestin) | FLuc enzyme inh inactive | A549 tox-2 inactive
CCCOC(=O)c1c(C)oc2c1cc(NS(=O)(=O)c1ccc(OCC)cc1)c1ccccc12	Nrf2 block inconclusive (no result: B2AR arrestin)
CCOc1ccc(Nc2c(S(=O)(=O)c3ccc(C)cc3)cnc3ccc(F)cc23)cc1	Nrf2 block inconclusive (no result: B2AR arrestin)
CCN1CC=C(c2c[nH]c3ccccc23)CC1	A549 tox-1 inconclusive, Nrf2 block 1.3µM | FLuc enzyme inh inactive | A549 tox-2 inconclusive | Nrf2 ARE inh 0.033µM
Cc1[nH]c2ccccc2c1C(=O)CN1CC=C(c2ccccc2)CC1	Nrf2 block inconclusive
CSc1ccccc1NC(=O)CN(C)CC(=O)c1[nH]c(C)c(C(C)=O)c1C	Nrf2 block inconclusive (no result: miR-21 FLuc)
CC1=CC(C)CC(C)OC(=O)CC(c2ccc(O)cc2)NC(=O)C(Cc2c(Br)[nH]c3ccccc23)N(C)C(=O)C(C)NC(=O)C(C)C1 (centres undefined)	A549 tox-1 1.8µM, Nrf2 block 0.58µM (no result: B2AR arrestin, miR-21 FLuc) | FLuc enzyme inh inactive | A549 tox-2 inconclusive | Nrf2 ARE inh 1.5µM
NC(=O)c1cn(C2OC(CO)C(O)C2O)c2ncnc(N)c12 (centres undefined)	A549 tox-1 inconclusive, Nrf2 block 0.46µM | FLuc enzyme inh inactive | A549 tox-2 inconclusive | Nrf2 ARE inh 0.82µM
N#Cc1cn(C2OC(CO)C(O)C2O)c2ncnc(N)c12 (centres undefined)	A549 tox-1 inconclusive, Nrf2 block inconclusive (no result: B2AR arrestin, miR-21 FLuc)
O=C(NCc1cccnc1)Nc1ccccc1Cl	none
O=C(CCCCCCCCCCC(=O)NCc1cccnc1)NCc1cccnc1	Nrf2 block inconclusive | FLuc enzyme inh inactive | A549 tox-2 inactive | Nrf2 ARE inh inconclusive
Cc1cc(S(=O)(=O)NC(C)C)ccc1OCC(=O)N1CCN(Cc2ccc3c(c2)OCO3)CC1	Nrf2 block 9.2µM | FLuc enzyme inh inactive | A549 tox-2 inactive | Nrf2 ARE inh inactive
CC(C)NS(=O)(=O)c1ccc(OCC(=O)N2CCN(Cc3ccc4c(c3)OCO4)CC2)c(Cl)c1	Nrf2 block inconclusive
O=C(COc1cc(Cl)ccc1Cl)Nc1ccc(Cl)cc1C(=O)c1ccccc1	none (no result: B2AR arrestin)
Cc1cc(-c2nc3ncccc3o2)ccc1NC(=O)c1ccccc1Br	Nrf2 block inconclusive (no result: B2AR arrestin)
O=C(c1cc(-c2cccc(Cl)c2)on1)N1CCOCC1	Nrf2 block inconclusive
Cc1cc([N+](=O)[O-])c2ccccc2[n+]1[O-]	miR-21 FLuc inconclusive, A549 tox-1 inconclusive, Nrf2 block 4.1µM | FLuc enzyme inh inactive | A549 tox-2 inactive | Nrf2 ARE inh 6.5µM
CC(C)c1cccc(C(C)C)c1OC(=O)NC(=O)c1c(F)cccc1F	A549 tox-1 inconclusive
